# Test system: UV4
# Experiment: Hypersensitivity factor which is a ratio of IC50 of AA8 cells to that of the UV4 cells
smiles,measurement,value
CN(CCCl)CCCl,Ratio,28

# From ChEMBL document CHEMBL1126786, “Nitrobenzyl mustard quaternary salts: a new class of hypoxia-selective cytotoxins showing very high in vitro selectivity” (1993)
